System: MOLM-13 cells (FLT3-ITD)
Assay: CellTiter-Glo cell viability (combination)
Assay type: cell-based, human
Conditions: MOLM-13, 72 hours, average CI
Description: Three cell lines which harbor FLT3-ITD were used for the drug combination studies (MV-4-11, MOLM-13, and MOLM-14).
Cells were treated with the drugs (single agent or combination) for 72 hours. Drug combination activity was determined by first measuring cell viability with CellTiter-Glo®, followed by the calculation of the EC50 corresponding to single agent activity, using the R DRC package (R Core Team, 2017). The combination index (CI) values were computed using the Chou-Talalay method (Chou T, Cancer Research., 2010 70(2): 440-6.), based on the viability of each drug alone and in combination, across all concentrations tested. In brief, CI was defined as: […]

COc1cccc2c1C(=O)c1c(O)c3c(c(O)c1C2=O)C[C@@](O)(C(C)=O)C[C@@H]3O[C@H]1C[C@H](N)[C@H](O)[C@H](C)O1 [Daunorubicin, daunorubicin]
combination index (CI) of AML drug in combination with MPC-0767: CI = 0.9

From patent publication US20200253979A1, “THERAPEUTIC METHODS RELATING TO HSP90 INHIBITORS” (AI Therapeutics, Inc., priority 2017, published 2020)
